Values of other authors, collected in patent publication US8192734B2, “Compositions and methods for bone strengthening” (Cornell University, priority 2007, dated 2012).

Tested on: rats
Conditions: cited from earlier work

For strontium nitrate, the LD50 is listed as 540 mg/kg body weight.
